Results taken from US20240400663A1 (Regeneron, published 2024).

Assays:
Assay in all cases: cell-based or functional assay
[1] = molecular target: PfRH5 of Plasmodium falciparum strain Dd2 (on live parasites) (Plasmodium falciparum)
[2] = molecular target: PfRH5 of Plasmodium falciparum strain D10 (on live parasites) (Plasmodium falciparum)
[3] = molecular target: PfRH5 of Plasmodium falciparum strain 7G8 (on live parasites) (Plasmodium falciparum)

B1: H1H29149P2 (antibody, V domains shown)
VH: QVQLQESGPGLVKPSQTLSLTCTVSGGSISSGGYYWNWIRQHPGKGLEWIGYIYYSGSTYYNPSLKSRVTISVDTSKNQFSLKLGSVTAADTAVYYCARAPPYNWFDYWGQGTLVTVSS
VL: not shown
Max growth inhibition (%) Dd2 [1]: 50.3%

B2: H1H29163P2 (antibody, V domains shown)
VH: QVQLVQSGAEVKKPGASVKVSCKTSGYTFTAYYIHWVRQAPGQGLEWMGWINPNNGDTNYALRFQGRVTMTRDMSINTAYMELRGLRSDDTAVYYCARDDLAAAGIGWFDSWGQGTLVTVSS
VL: not shown
Max growth inhibition (%) D10 [2]: 71.8%

B3: H1H29187P2 (antibody, V domains shown)
VH: QVQLVESGGGVVQPGRFLRLSCAASGFTFSNSGMHWVRQAPGKGLEWVAGIWHDGSYKYYVDSVKGRFTISRDNSKNTLFLQMNSLRAEDTAVYYCARDDYYASGTSVDVWGQGTTVTVSS
VL: not shown
Max growth inhibition (%) 7G8 [3]: 71.8%
